The record followed here is ChEMBL document CHEMBL1140230, “Discovery of begacestat, a Notch-1-sparing gamma-secretase inhibitor for the treatment of Alzheimer's disease” (J Med Chem, 2008).

The test can be described thus: Selectivity ratio of EC50 for gamma-secretase to EC50 for mouse notch processing.

Turning to `CC[C@H](C)[C@@H](CO)NS(=O)(=O)c1ccc(Cl)cc1`, the Ratio EC50 worked out at 3.7.
For `CC[C@H](C)[C@@H](CO)NS(=O)(=O)c1ccc(Br)cc1` the value was 9.
